Earlier results, collected in US12076400B2, “Methods of using a bispecific antigen-binding construct targeting HER2 in combination with CDK4/6 inhibitors for the treatment of breast cancer” (c/o Zymeworks BC Inc., priority 2019, dated 2024).

Protein sequences, listed by entry. Tags and fused reporters are not part of them.
UniProt P03372, whole entry: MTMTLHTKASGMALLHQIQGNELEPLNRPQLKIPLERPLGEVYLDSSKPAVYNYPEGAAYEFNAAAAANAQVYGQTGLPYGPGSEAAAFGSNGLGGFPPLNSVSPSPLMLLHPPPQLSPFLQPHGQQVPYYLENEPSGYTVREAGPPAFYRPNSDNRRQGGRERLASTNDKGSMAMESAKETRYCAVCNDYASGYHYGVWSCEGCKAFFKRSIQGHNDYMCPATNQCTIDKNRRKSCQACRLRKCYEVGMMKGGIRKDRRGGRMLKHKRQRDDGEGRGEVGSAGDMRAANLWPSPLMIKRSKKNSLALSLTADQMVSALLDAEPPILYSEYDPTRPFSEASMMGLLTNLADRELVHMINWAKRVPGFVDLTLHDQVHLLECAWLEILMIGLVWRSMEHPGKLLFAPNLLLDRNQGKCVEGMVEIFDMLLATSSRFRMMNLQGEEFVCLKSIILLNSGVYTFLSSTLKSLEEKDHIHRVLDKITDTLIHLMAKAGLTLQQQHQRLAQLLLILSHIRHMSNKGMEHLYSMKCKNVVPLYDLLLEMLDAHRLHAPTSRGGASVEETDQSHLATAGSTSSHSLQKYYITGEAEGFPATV

Columns and labels:
[1] = target: T1, ER protein in human breast cancer cells (Homo sapiens, UniProt P03372)
T1 construct: endogenous in cells

[2] = target: estrogen receptor (ER) (Homo sapiens, UniProt P03372); settings: competitive binding

## 7-alpha-[9-(4,4,5,5,5-penta fluoropentylsulphinyl) nonyl]estra-1,3,5-(10)-triene-3,17beta-diol [Fulvestrant]
[1]
  Effect on ER protein: downregulates the ER protein
[2]
  Binding affinity to the ER: affinity comparable to that of estradiol
